Measurements: paper PMC11827123 (Journal of medicinal chemistry, 2023)

Test system: MOLT4 cells
Experiment: Quantitative MS degradation proteomics in MOLT4 cells
Settings: 6 h treatment

COc1cc(C2CCN(CC3CN(c4ccc5c(c4)C(=O)N(C4CCC(=O)NC4=O)C5=O)C3)CC2)c(C)cc1Nc1ncc(Cl)c(Nc2ccccc2S(=O)(=O)C(C)C)n1 (stereo not shown) [CPD-1224, 5-{3-[(4-{4-[(5-Chloro-4-{[2-(propane-2-sulfonyl)phenyl]amino}pyrimidin-2-yl)amino]-5-methoxy-2-methylphenyl}piperidin-1-yl)methyl]azetidin-1-yl}−2-(2,6-dioxopiperidin-3-yl)-2,3-dihydro-1H-isoindole-1,3-dione]
proteins degraded to any significant extent: degraded only a small number of proteins
